# Test results as given in patent US12564597B2 (priority 2020, dated 2026).
# How the values were obtained:
# [1] = HLM; for Percentage turnover of test compounds (percent remaining): 10 μM, +NADPH
# [2] = Metabolic stability and noribogaine formation in rat liver microsomes (RLM); settings: for Percentage turnover of test compounds (percent remaining): 10 μM, +NADPH
# [3] = Plasma pharmacokinetics and brain distribution in male Wistar rats after a single intraperitoneal dose
# [4] = Buffer control for chemical instability in the incubation buffer; settings: Kphos buffer pH 7.4, 37° C., no microsomes, minus NADPH
# [5] = 0.08 h after ibogaine 40 mg/kg i.p.
# [6] = 0.25 h after ibogaine 40 mg/kg i.p.
# [7] = 0.5 h after ibogaine 40 mg/kg i.p.
# [8] = 1 h after ibogaine 40 mg/kg i.p.
# [9] = 2 h after ibogaine 40 mg/kg i.p.
# [10] = 3 h after ibogaine 40 mg/kg i.p.
# [11] = brain, analyte after ibogaine 40 mg/kg i.p.
# [12] = plasma, analyte after ibogaine 40 mg/kg i.p.
substance,measurement,setting,value
Ibogaine [reference compound],"CLh, int",[1],7 mL/min/kg
same,t1/2,[1],>60 min
same,Percentage turnover of test compounds (percent remaining),[1]; 0 min,100%
same,Percentage turnover of test compounds (percent remaining),[1]; 15 min,98%
same,Percentage turnover of test compounds (percent remaining),[1]; 30 min,94%
same,Percentage turnover of test compounds (percent remaining),[1]; 60 min,81%
same,% Remaining at 60 min (+NADPH),[1]; summary,81%
same,% Remaining at 60 min (−NADPH),[1]; without NADPH,98%
same,"CLh, int",[2],306 mL/min/kg
same,t1/2,[2],8 min
same,Percentage turnover of test compounds (percent remaining),[2]; 0 min,100%
same,Percentage turnover of test compounds (percent remaining),[2]; 5 min,86%
same,Percentage turnover of test compounds (percent remaining),[2]; 15 min,56%
same,Percentage turnover of test compounds (percent remaining),[2]; 30 min,23%
same,Percentage turnover of test compounds (percent remaining),[2]; 60 min,1%
same,% Remaining at 60 min (+NADPH),[2]; summary,1%
same,Mean brain concentration,[3]; [5],24369 ng/g
same,Mean plasma concentration,[3]; [5],1545 ng/mL
same,Mean brain concentration,[3]; [6],25902 ng/g
same,Mean plasma concentration,[3]; [6],1269 ng/mL
same,Mean brain concentration,[3]; [7],10946 ng/g
same,Mean plasma concentration,[3]; [7],987 ng/mL
same,Mean brain concentration,[3]; [8],7013 ng/g
same,Mean plasma concentration,[3]; [8],769 ng/mL
same,Mean brain concentration,[3]; [9],4778 ng/g
same,Mean plasma concentration,[3]; [9],530 ng/mL
same,Mean brain concentration,[3]; [10],3899 ng/g
same,Mean plasma concentration,[3]; [10],404 ng/mL
same,AUClast,[3]; [11],24577.92 ng·h/g
same,Tmax,[3]; [11],15 min
same,AUClast,[3]; [12],2138.81 ng·h/mL
same,Cmax,[3]; [12],1545.13 ng/mL
same,Tmax,[3]; [12],4.8 min
same,% Remaining at 60 min (Buffer),[4],103%

# Like-named read-outs stand apart in the source and are kept apart here.
